Laboratory results published in publication PMC12457078, “Inhibition of soluble epoxide hydrolase in endotoxin induced pig lung injury” (Frontiers in Pharmacology, 2025).

Protein sequences, listed by entry. Tags and fused reporters are not part of them.
UniProt Q6Q2C2, whole entry: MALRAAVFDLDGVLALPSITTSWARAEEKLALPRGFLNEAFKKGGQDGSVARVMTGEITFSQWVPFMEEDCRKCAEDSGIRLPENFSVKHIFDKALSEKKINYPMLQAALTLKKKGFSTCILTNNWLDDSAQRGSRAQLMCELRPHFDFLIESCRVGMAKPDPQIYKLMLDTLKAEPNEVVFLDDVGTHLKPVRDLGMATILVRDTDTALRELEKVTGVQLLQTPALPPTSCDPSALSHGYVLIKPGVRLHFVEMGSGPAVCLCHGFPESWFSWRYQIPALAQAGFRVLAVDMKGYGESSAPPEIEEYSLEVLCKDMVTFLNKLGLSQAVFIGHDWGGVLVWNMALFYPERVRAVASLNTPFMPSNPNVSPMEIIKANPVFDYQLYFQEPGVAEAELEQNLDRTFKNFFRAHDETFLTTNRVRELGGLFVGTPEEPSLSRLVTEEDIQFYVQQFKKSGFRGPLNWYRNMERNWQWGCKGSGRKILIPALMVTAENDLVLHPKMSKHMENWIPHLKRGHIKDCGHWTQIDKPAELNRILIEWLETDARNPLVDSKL

Target: Recombinant porcine sEH (Sus scrofa, UniProt Q6Q2C2)
Experiment: fluorescent activity assay (MNPC substrate), sEH inhibition potency

- pIC50: 8.40
SMILES: O=C(O)CCCCCCCCCCCNC(=O)NC12CC3CC(CC(C3)C1)C2 [Compound 700]

pIC50: −log10 of the molar value.
